Laboratory results as given in patent publication US11382915B2, “Treatment of focal segmental glomerulosclerosis with CCR2 antagonists” (CHEMOCENTRYX, INC., priority 2017, dated 2022).

Sequences of proteins named here, by UniProt entry; tags and fusion partners are left off.
UniProt P51681, whole entry: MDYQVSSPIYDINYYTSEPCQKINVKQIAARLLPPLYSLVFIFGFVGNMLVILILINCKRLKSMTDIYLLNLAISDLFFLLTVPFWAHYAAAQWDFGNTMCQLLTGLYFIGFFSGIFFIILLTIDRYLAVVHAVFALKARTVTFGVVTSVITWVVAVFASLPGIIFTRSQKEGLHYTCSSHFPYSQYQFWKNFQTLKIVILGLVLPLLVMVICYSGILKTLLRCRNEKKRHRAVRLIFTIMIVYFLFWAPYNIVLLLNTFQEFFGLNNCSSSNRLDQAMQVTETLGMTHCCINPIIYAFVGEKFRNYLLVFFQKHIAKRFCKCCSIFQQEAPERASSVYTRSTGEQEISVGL

Molecular target: T1, CCR5 (Homo sapiens, UniProt P51681)
T1 construct: expressed in transfected cells; host or cells: L1.2
Test: L1.2-CCR5 Chemotaxis
Assay type: cell-based
Conditions: read-out: Potency (IC50), CCR5

Q: How did the IC50 turn out when `Cc1cnc(C(=O)c2ccnc3[nH]ccc23)c(NS(=O)(=O)c2ccc(Cl)c(C(F)(F)F)c2)c1` [Compound 1] was run?
A: > 8 µM
